From ChEMBL document CHEMBL1126401, “New potent enkephalin analogs containing trifluoromethylamino acid residues” (Bioorg Med Chem Lett, 1992)

Sequences of proteins named here, by UniProt entry; tags and fusion partners are left off.
UniProt P33533, whole entry: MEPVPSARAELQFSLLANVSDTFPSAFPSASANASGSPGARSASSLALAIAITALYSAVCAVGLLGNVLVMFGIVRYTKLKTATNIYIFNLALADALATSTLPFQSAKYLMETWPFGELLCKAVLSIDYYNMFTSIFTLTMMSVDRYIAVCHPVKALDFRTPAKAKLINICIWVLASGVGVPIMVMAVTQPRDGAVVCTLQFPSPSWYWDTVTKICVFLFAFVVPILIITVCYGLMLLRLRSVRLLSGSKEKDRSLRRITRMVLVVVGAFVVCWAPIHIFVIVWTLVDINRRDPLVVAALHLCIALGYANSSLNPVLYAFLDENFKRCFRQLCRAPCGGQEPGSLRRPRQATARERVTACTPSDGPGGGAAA

Target: Delta-type opioid receptor (Rattus norvegicus, UniProt P33533)
Test: Compound was evaluated for its binding affinity against enkephalin delta receptor using [3H]DPDPE as ligand in rat cerebrum in vitro

`CSCC[C@H](NC(=O)[C@H](Cc1ccccc1)NC(=O)CNC(=O)CNC(=O)[C@@H](N)Cc1ccc(O)cc1)C(=O)O` showed an IC50 of 1 nM.
